Source: ChEMBL document CHEMBL1129592 (J Med Chem, 1996)

Protein sequences, listed by entry. Tags and fused reporters are not part of them.
UniProt P19327, whole entry: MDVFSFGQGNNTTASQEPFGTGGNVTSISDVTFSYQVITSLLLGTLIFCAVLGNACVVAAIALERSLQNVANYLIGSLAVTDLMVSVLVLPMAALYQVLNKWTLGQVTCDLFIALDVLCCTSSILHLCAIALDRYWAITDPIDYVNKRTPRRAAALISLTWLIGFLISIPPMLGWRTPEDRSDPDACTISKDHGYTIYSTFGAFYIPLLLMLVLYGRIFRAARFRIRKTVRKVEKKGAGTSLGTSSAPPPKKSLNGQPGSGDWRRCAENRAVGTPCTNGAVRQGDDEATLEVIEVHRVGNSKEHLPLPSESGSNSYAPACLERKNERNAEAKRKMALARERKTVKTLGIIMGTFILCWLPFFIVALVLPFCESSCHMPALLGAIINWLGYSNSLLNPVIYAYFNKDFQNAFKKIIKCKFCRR

Target: 5-hydroxytryptamine receptor 1A (Rattus norvegicus, UniProt P19327)
Test: Binding affinity towards rat 5-hydroxytryptamine 1A receptor was evaluated using [3H]8-OH-DPAT as radioligand

## COc1ccc2c(c1)CCCC2CCCN1CCN(c2ccccc2)CC1 (stereo unspecified)
  IC50: 5.4 nM
